Data taken from patent EP1077967B1, “BIPHENYL OXO-ACETIC ACIDS USEFUL IN THE TREATMENT OF INSULIN RESISTANCE AND HYPERGLYCEMIA” (Wyeth, priority 1998, dated 1999).

The compounds below were run against T1, Human recombinant PTP1B (Homo sapiens, UniProt P18031) (assay: Inhibition of tri-phosphorylated insulin receptor dodecaphosphopeptide dephosphorylation by hPTP1B (malachite green)). Details: dodecaphosphopeptide substrate.
T1 construct: made in house
T1 sequence (P18031 1-435): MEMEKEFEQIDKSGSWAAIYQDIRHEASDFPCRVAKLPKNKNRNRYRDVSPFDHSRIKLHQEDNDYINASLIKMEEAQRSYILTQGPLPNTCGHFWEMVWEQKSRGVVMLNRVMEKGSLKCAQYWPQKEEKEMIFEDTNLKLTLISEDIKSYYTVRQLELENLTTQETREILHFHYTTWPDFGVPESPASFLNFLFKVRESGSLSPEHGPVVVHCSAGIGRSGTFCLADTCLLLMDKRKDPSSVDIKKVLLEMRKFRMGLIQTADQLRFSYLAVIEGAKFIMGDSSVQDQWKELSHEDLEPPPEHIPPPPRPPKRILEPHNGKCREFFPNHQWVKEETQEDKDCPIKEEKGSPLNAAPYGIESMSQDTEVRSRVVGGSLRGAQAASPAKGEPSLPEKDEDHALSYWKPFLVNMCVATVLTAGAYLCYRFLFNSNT
Assay type: biochemical

Row | IC50 [nM] | SMILES
1 | 680 | O=C(c1ccccc1)c1oc2ccccc2c1-c1ccc(-c2ccc(OC(Cc3ccccc3)C(=O)O)cc2)cc1 (stereo not drawn) [Example 14]
2 | 95 | O=C(O)C(Cc1ccccc1)Oc1ccc(-c2ccc(-c3c(Cc4ccccc4)sc4ccccc34)cc2)cc1 (stereo not drawn) [Example 13, 2-[4'-(2-Benzyl-benzo[b]thiophen-3-yl)-biphenyl-4-yloxy]-3-phenyl-propionic acid]
3 | 77 | COc1ccc(Cc2sc3ccccc3c2-c2ccc(-c3ccc(O[C@H](Cc4ccccc4)C(=O)O)cc3)cc2)cc1 [Example 20]
